Measurements taken from patent US20220289753A1, “SHP2 INHIBITORS” (IRBM S.P.A., priority 2019, published 2022).

By UniProt entry, the sequences of proteins in these tests, tags left out. Residues count along the entry.
UniProt Q06124, 1-525 limits assumed: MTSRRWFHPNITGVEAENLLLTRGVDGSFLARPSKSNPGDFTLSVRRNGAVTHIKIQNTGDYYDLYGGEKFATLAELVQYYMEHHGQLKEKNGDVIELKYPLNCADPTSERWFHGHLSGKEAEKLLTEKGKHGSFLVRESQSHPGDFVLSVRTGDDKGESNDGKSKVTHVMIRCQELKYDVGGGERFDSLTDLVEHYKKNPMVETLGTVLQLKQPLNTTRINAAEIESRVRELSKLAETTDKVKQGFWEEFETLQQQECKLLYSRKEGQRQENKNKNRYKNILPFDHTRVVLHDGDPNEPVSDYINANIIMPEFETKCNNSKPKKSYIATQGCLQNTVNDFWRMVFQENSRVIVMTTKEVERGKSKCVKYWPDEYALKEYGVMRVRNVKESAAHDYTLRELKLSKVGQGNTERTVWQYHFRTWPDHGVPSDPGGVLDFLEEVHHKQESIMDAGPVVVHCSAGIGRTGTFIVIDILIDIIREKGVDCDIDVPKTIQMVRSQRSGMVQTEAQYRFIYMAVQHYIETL

How the values were obtained:
[1] = biological target: SHP-2 enzyme (Met1-Leu525) (Homo sapiens, UniProt Q06124); assay: SHP2 inhibition enzymatic assay (DiFMUP substrate, IRS1 peptide activation); format: biochemical; conditions: read-out: SHP2 wt - IC50, activated by 500 nM IRS1 peptide, 75 μM DiFMUP substrate
[2] = test system: ERK phosphorylation in KYSE-520 cells; assay: Phospho-ERK cellular assay (Advanced phospho-ERK1/2 (Thr202/Tyr204) TR-FRET kit); format: cell-based; conditions: read-out: pERK IC50, 2 h at 37° C.

N[C@@H]1c2nc(Cl)sc2CC12CCN(c1nc3nc(Sc4cccnc4C(F)(F)F)cnc3[nH]1)CC2
IC50 [1]: < 0.5 µM | IC50 [2]: < 1 µM
